Experimental vapor pressure values from OPERA 2.9

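The OPERA project collected these measurements from public sources as training and test data for property models. A listed value is a point estimate from one report or more. Conditions of the individual experiments are not part of the data. The measured form (salt, isomer or mixture) is not always the one drawn. Some entries may be limits or estimates that an upstream database listed as plain numbers.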

Vapor pressure is log10 of mmHg; the set covers 15 to 30 °C, mostly 20 to 25 °C. The databases behind each value are named after "via".

{"smiles": "Cc1c([N+](=O)[O-])c(C)c([N+](=O)[O-])c(C(C)(C)C)c1[N+](=O)[O-]", "name": "Musk Xylene", "log vapor pressure (log10 mmHg)": "-6.648", "via": "OCHEM, PubChem"}
{"smiles": "C#C[C@]1(O)CC[C@H]2[C@H]3[C@H](CC[C@@]21C)[C@H]1CCC(=O)C=C1C[C@H]3C", "name": "delta4-Tibolone", "log vapor pressure (log10 mmHg)": "-9.186", "via": "eChemPortal"}
{"smiles": "CCC(=O)Cl", "name": "Propanoyl chloride", "log vapor pressure (log10 mmHg)": "1.9", "via": "eChemPortal"}
{"smiles": "FC(F)COC(F)(F)C(F)(F)F", "name": "(2,2-Difluoroethoxy)pentafluoroethane", "log vapor pressure (log10 mmHg)": "2.576", "via": "ICF"}
{"smiles": "O=C(Cc1ccccc1)N/C(=N\\OCC1CC1)c1c(C(F)(F)F)ccc(F)c1F", "name": "Cyflufenamid", "log vapor pressure (log10 mmHg)": "-6.575", "via": "OCHEM"}
{"smiles": "CNC(C)C(O)c1ccccc1.Cl", "stereo": "stereo not drawn", "log vapor pressure (log10 mmHg)": "-7.634", "via": "eChemPortal"}
{"smiles": "Cl.NCC(O)c1ccc(O)cc1", "stereo": "stereo not drawn", "name": "2-Amino-1-(4-hydroxyphenyl)ethanol hydrochloride", "log vapor pressure (log10 mmHg)": "-4.736", "via": "eChemPortal"}
{"smiles": "Clc1ccc(-c2c(Cl)c(Cl)c(Cl)c(Cl)c2Cl)cc1", "name": "2,3,4,4',5,6-Hexachlorobiphenyl", "log vapor pressure (log10 mmHg)": "-5.055", "via": "OCHEM"}
{"smiles": "CCCN(CCC)c1c([N+](=O)[O-])cc(S(N)(=O)=O)cc1[N+](=O)[O-]", "name": "Oryzalin", "log vapor pressure (log10 mmHg)": "-8.011", "via": "PubChem"}
{"smiles": "Clc1ccc(-c2c(Cl)cccc2Cl)cc1", "name": "2,4',6-Trichlorobiphenyl", "log vapor pressure (log10 mmHg)": "-3.365", "via": "OCHEM"}
{"smiles": "O=C(O)CCP(=O)(O)c1ccccc1", "name": "3-[Hydroxy(phenyl)phosphoryl]propanoic acid", "log vapor pressure (log10 mmHg)": "-7.046", "via": "eChemPortal"}
{"smiles": "Clc1ccc(-c2ccc(Cl)c(Cl)c2Cl)cc1", "log vapor pressure (log10 mmHg)": "-4.495", "via": "OCHEM"}
{"smiles": "COc1ccc(C(OC[C@H]2O[C@@H](n3ccc(NC(=O)c4ccccc4)nc3=O)C[C@@H]2OP(OCCC#N)N(C(C)C)C(C)C)(c2ccccc2)c2ccc(OC)cc2)cc1", "stereo": "stereo partly specified", "name": "Bz-dC Phosphoramidite", "log vapor pressure (log10 mmHg)": "-8.974", "via": "eChemPortal"}
{"smiles": "CCc1cccc(CC)c1N(COC)C(=O)CCl", "name": "Alachlor", "log vapor pressure (log10 mmHg)": "-4.658", "via": "OCHEM, PubChem"}
{"smiles": "C(OCC1CO1)C(COCC1CO1)OCC1CO1", "stereo": "stereo not drawn", "log vapor pressure (log10 mmHg)": "-2.442", "via": "eChemPortal"}
{"smiles": "CN(C)CCC#N", "name": "3-Dimethylaminopropionitrile", "log vapor pressure (log10 mmHg)": "-0.046", "via": "eChemPortal"}
{"smiles": "CCOP(=S)(OCC)Oc1cc(Cl)c(Br)cc1Cl", "name": "Bromophos-ethyl", "log vapor pressure (log10 mmHg)": "-4.337", "via": "OCHEM, PubChem"}
{"smiles": "CNC1=C(c2cccc(C(F)(F)F)c2)C(=O)C(c2ccccc2)O1", "stereo": "stereo not drawn", "name": "Flurtamone", "log vapor pressure (log10 mmHg)": "-8.471", "via": "OCHEM"}
{"smiles": "COC(=O)C1(O)c2ccccc2-c2ccc(Cl)cc21", "stereo": "stereo not drawn", "name": "Chlorflurenol-methyl", "log vapor pressure (log10 mmHg)": "-6.011", "via": "OCHEM"}
{"smiles": "CC[C@@H](C(N)=O)N1CCCC1=O", "log vapor pressure (log10 mmHg)": "-5.591", "via": "PubChem"}
{"smiles": "CCC12COCN1COC2", "name": "7a-Ethyldihydro-1H,3H,5H-oxazolo(3,4-c)oxazole", "log vapor pressure (log10 mmHg)": "0.095", "via": "eChemPortal"}
{"smiles": "Cc1ccccc1CCl", "name": "1-(Chloromethyl)-2-methylbenzene", "log vapor pressure (log10 mmHg)": "-0.399", "via": "eChemPortal"}
{"smiles": "Clc1cc(Cl)c(Cl)c(-c2c(Cl)c(Cl)c(Cl)c(Cl)c2Cl)c1", "name": "2,2',3,3',4,5,5',6-Octachlorobiphenyl", "log vapor pressure (log10 mmHg)": "-5.955", "via": "OCHEM"}
{"smiles": "c1ccc(COP(OCc2ccccc2)OCc2ccccc2)cc1", "name": "Tribenzyl phosphite", "log vapor pressure (log10 mmHg)": "-6.347", "via": "eChemPortal"}
{"smiles": "Cc1ccc(N)cc1Cl", "name": "3-Chloro-4-methylaniline", "log vapor pressure (log10 mmHg)": "-1.071", "via": "PubChem"}
{"smiles": "O=C(O)CCCCCCCCCCC(=O)O", "name": "Dodecanedioic acid", "log vapor pressure (log10 mmHg)": "-9.949", "via": "eChemPortal"}
{"smiles": "ClC(Cl)Br", "name": "Bromodichloromethane", "log vapor pressure (log10 mmHg)": "1.699", "via": "PubChem"}
{"smiles": "CCC(C)(C#N)N=NC(C)(C#N)CC", "stereo": "stereo not drawn", "name": "2,2'-Azobis(2-methylbutanenitrile)", "log vapor pressure (log10 mmHg)": "-2.711", "via": "OFMPub, eChemPortal"}
{"smiles": "COc1cc(OC)nc(NC(=O)[N-]S(=O)(=O)c2ncccc2OCC(F)(F)F)n1.[Na+]", "name": "Trifloxysulfuron-sodium", "log vapor pressure (log10 mmHg)": "-8.068", "via": "OCHEM, eChemPortal"}

4 of these entries, quoted again:

| SMILES | name | log vapor pressure (log10 mmHg) | via |
|---|---|---|---|
| FC(F)COC(F)(F)C(F)(F)F | (2,2-Difluoroethoxy)pentafluoroethane | 2.576 | ICF |
| Clc1ccc(-c2c(Cl)cccc2Cl)cc1 | 2,4',6-Trichlorobiphenyl | -3.365 | OCHEM |
| O=C(O)CCCCCCCCCCC(=O)O | Dodecanedioic acid | -9.949 | eChemPortal |
| Clc1ccc(-c2c(Cl)c(Cl)c(Cl)c(Cl)c2Cl)cc1 | 2,3,4,4',5,6-Hexachlorobiphenyl | -5.055 | OCHEM |

Data: OPERA 2.9 data sets, kmansouri/OPERA on GitHub.